From ChEMBL document CHEMBL1158490, “Discovery of leukotriene A4 hydrolase inhibitors using metabolomics biased fragment crystallography” (J Med Chem, 2009)

Columns and labels:
[1] = target: T1, Leukotriene A-4 hydrolase (Homo sapiens, UniProt P09960); assay: Inhibition of hydrolase activity of human recombinant LTA4H expressed in Escherichia coli BL21-AI/pRARE assessed as LTB4 formation by tandem quadrupole mass spectrometry
T1 sequence (P09960 whole entry): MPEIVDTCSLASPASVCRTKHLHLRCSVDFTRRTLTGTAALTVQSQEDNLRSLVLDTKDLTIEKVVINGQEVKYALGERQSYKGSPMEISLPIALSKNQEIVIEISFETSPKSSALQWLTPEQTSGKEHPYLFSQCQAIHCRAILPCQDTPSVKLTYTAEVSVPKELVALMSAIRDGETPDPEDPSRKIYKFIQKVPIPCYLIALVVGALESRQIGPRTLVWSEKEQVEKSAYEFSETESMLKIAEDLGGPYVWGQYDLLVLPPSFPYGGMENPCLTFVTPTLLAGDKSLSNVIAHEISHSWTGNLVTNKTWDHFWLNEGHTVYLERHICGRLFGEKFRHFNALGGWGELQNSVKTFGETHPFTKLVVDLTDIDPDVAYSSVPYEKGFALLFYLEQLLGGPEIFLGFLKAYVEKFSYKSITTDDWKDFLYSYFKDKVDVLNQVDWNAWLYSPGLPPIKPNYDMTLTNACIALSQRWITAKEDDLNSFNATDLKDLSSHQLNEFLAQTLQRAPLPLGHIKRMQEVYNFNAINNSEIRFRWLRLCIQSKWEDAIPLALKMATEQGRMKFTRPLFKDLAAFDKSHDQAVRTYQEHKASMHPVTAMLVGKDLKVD

[2] = target: T1, Leukotriene A-4 hydrolase; assay: Inhibition of peptidase activity of human recombinant LTA4H expressed in Escherichia coli BL21-AI/pRARE

Row | SMILES | IC50 [1] [µM] | IC50 [2] [µM]
1 | O=C(c1ccncc1)c1ccc(F)cc1 | 5310 | 
2 | NCc1ccc(-c2cccs2)s1 | 75.2 | 38.9
3 | OC(c1ccncc1)c1ccc(OCCN2CCCC2)cc1 (stereo not drawn) | 170 | 
4 | c1ccc(CNc2ccc(OC[C@H]3CCCN3)cc2)cc1 | 0.157 | 
5 | O=C(O)C1CCN(CCOc2ccc3[nH]ccc3c2)CC1 | 966 | 
6 | Nc1nc(-c2ccc(O)cc2)cs1 | 1440 | > 1000
